In this assay the target is T1, human NMDA receptor GluN1-GluN2C (Homo sapiens, UniProt Q05586+Q14957).
T1 construct: expressed in transfected cells; host or cells: CHO
The assay can be described thus: FLIPR calcium assay, test item effect on L-glutamate CRC, GluN1-GluN2C-CHO. The conditions noted are these: with test item 781 nM. The assay is classed as cell-based.

The chains behind the UniProt entries cited, without tags or fusion partners. Residues count along the entry.
UniProt Q14957, 20-1233: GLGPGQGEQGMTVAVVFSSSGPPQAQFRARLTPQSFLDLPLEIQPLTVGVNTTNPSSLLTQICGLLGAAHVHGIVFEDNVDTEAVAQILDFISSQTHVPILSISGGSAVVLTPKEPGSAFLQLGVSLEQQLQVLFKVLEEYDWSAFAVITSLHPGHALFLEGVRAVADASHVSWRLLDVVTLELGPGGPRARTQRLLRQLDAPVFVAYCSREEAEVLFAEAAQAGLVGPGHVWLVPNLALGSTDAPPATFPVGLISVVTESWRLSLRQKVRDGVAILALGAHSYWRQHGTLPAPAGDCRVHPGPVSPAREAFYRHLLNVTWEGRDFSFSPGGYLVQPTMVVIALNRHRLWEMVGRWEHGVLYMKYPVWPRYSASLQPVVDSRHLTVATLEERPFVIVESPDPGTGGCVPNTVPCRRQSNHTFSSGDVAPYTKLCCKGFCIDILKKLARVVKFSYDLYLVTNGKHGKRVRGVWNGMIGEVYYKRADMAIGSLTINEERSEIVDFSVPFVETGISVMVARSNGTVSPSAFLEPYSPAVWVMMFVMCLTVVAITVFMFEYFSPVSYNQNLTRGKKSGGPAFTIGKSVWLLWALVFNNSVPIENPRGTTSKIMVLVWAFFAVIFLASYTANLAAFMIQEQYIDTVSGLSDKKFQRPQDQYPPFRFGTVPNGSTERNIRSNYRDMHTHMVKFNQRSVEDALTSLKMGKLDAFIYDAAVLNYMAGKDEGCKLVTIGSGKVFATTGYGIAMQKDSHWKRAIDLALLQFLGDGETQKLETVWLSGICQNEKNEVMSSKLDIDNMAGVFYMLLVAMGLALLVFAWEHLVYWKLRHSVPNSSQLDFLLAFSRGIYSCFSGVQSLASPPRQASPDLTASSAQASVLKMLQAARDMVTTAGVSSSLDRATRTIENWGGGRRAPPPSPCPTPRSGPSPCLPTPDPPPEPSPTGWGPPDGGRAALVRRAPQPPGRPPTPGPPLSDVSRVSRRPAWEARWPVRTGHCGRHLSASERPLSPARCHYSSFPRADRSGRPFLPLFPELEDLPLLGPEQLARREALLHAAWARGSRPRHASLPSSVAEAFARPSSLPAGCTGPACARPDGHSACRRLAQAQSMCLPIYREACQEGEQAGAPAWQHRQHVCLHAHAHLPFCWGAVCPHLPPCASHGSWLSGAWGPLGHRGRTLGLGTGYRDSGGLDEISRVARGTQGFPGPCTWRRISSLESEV

Counter-ions that a name gives are not always drawn.

For `CC12CC3CC(C)(C1)CC(N)(C3)C2` [Memantine, memantine hydrochloride], the “L-glutamate CRC LogEC50” value was −6.6.

The record behind these values is patent US20230017786A1 (priority 2020, published 2023).
